Biological target: human type II IMPDH (Homo sapiens, UniProt P12268)
Test: human IMPDH type II selectivity assay
Conditions: read-out: IC50 human IMPDH-II

Question: `COc1ccc(NC(=O)Cn2c(-c3cscn3)nc3ccccc32)cc1` was tested. Which IC50 did it give?
Answer: > 50 µM

— US10125116B2, “Compounds and methods for treating mammalian gastrointestinal microbial infections” (Brandeis University, priority 2009, dated 2018)
